## Yeast mating assay B: variants of the scFv Ab-14

Source: Li et al. 2023 (doi:10.1038/s41467-023-39022-2), MIT Lincoln Laboratory and A-Alpha Bio; data file from the FLAb repository.

Antigen: PDVDLGDISGINAS, a 14-residue peptide of the SARS-CoV-2 spike HR2 region.

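The starting antibody came from a phage panning campaign against this peptide. The variants were designed computationally from a first round of random CDR variants and then made and measured. Group labels follow the data file (Ctrl: baseline library sampled from a position-specific scoring matrix, with some repeated check sequences; En: ensemble of fine-tuned language models; GP: Gaussian process model; GPLM: also part of the Gaussian process libraries; HC: hill climbing; Gen: genetic algorithm; Gibbs: Gibbs sampling; a sequence that several methods proposed may carry one label only). Affinity was read by AlphaSeq, a pooled yeast mating assay with surface-displayed partners. Binding brings cells together so that they mate, and sequencing counts the barcode pairs among the diploids. Read counts were normalised to the haploid input and turned into Kd by a linear fit to BCL2-family pairs of known affinity, for each replicate. Each pool was mated in six replicate cultures.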

The variants keep the light chain, the linker and the frameworks of Ab-14 (scFv order VH, a 15-residue (Gly4Ser)3 linker, VL).
VH: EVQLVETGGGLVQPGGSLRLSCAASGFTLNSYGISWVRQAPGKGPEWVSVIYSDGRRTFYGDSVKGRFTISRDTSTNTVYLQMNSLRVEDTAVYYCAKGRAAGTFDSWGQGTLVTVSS
VL: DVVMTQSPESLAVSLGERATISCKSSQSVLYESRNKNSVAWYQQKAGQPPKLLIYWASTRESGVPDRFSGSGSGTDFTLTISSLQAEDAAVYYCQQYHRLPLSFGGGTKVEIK

Variants are written as CDR1, CDR2 and CDR3 of the heavy chain (limits as in the source). Parent: GFTLNSYGIS, VIYSDGRRTFYGDSVK, GRAAGTFDS.
This list holds designs with at most six substitutions.
Values are apparent Kd, the geometric mean of the replicates that gave a signal; lower means stronger binding.
"nd" marks a missing value. The strain was present, yet no cells mated with the target were sequenced in any replicate, which points to weak or no binding.
Order: sorted from the lowest average up, undetected variants last.
Nonspecific signal, from three strains lacking the peptide, appeared in 1% of pairings of all heavy chain designs, centred on 120 nM (5% of these signals below 7.0 nM); values are not corrected for it. Also given: how often the same scFv was detected with the empty control strains.
The authors' rule: three or more of the six replicates give a measured affinity, fewer mean a poor binder.
The range of this assay differs from that of the first round, and the authors advise against merging the two.

For GFELNSYGIS | VIYSDGRRTFYDDSVK | GKTAGTFDS [GP_Gen], the assay gave 68 pM (3 of 6 replicates; controls 0 of 18).
For GFSLNEYGIS | VIYSDGRRTFYGDSVK | GRVAGTFDK [GPLM_Gen], the assay gave 550 pM (5 of 6 replicates; controls 0 of 18).
For GFDLNEYGIS | VIYADGRRTFYKDSVK | GEAAGTFDE [En_HC], the assay gave 550 pM (6 of 6 replicates; controls 0 of 18).
For GFTLNEYGIS | VIYSDGQRTFYGDSVK | GRTAGTFDS [GPLM_Gen], the assay gave 1.2 nM (6 of 6 replicates; controls 0 of 18).
For GFTLNSYGIS | VIYADGRRTFYGDSVK | GHAAGTFDI [GP_Gibbs], the assay gave 1.4 nM (6 of 6 replicates; controls 0 of 18).
For GFQLNEYGIS | VIYSDGRRTFYGDSVK | GKTAGTFDS [GP_Gen], the assay gave 1.4 nM (6 of 6 replicates; controls 0 of 18).
For GFDLNSYGIS | VIYSDGRRTFYGDSVK | GNQAGTFDS [GP_Gen], the assay gave 2.2 nM (6 of 6 replicates; controls 0 of 18).
For GFTLNEYGIS | VIYSDGRRTFYTDSVK | GRAAGTFDL [GPLM_HC], the assay gave 2.7 nM (6 of 6 replicates; controls 3 of 18).
For GFTLNSYGIS | VIYADGRRTFYGDSVK | GKAAGTFDM [GPLM_Gen], the assay gave 2.7 nM (6 of 6 replicates; controls 0 of 18).
For GFNLNSYGIS | VIYSDGRRTFYGDNVK | GWTAGTFDS [GP_Gibbs], the assay gave 2.9 nM (6 of 6 replicates; controls 0 of 18).
For GFSLNSYGIS | VIYSDGRRTFYDDKVK | GRAAGTFDS [Ctrl], the assay gave 4.8 nM (6 of 6 replicates; controls 0 of 18).
For GFTLNEYGIS | VIYSDGRRTFYDDSVK | GRYAGTFDS [GP_HC], the assay gave 6.2 nM (4 of 6 replicates; controls 0 of 18).
For FFTLESYGIS | VIYADGRRTFYGDSVK | GRAAGTFDS [GP_HC], the assay gave 6.8 nM (2 of 6 replicates; controls 0 of 18).
For GFELNSYGIS | VIYSDGKRTFYKDSVK | GRTAGTFDS [GPLM_Gibbs], the assay gave 21 nM (6 of 6 replicates; controls 0 of 18).
For GFSLKSYGIS | VIYSDGRRTFYGDSVK | GRTAGTFDS [GPLM_Gen], the assay gave 21 nM (3 of 6 replicates; controls 1 of 18).
For GNNLNSYGIS | VIYSDGQRTFYGDSVR | GRAVGTFDD [Ctrl], the assay gave 32 nM (3 of 6 replicates; controls 1 of 18).
For GFTLNSYGIS | VIYSDGRRTFYGDSVV | GRATGTFDS [Ctrl], the assay gave 58 nM (1 of 6 replicates; controls 0 of 18).
For GFTLNSYGIS | VIYSDGRRTFYTDSVK | GRMAGTFDS [Ctrl], the assay gave 85 nM (6 of 6 replicates; controls 0 of 18).
For GFTLNSYGIS | VIYSDGMRTHYGDSVK | GRAAGTFDS [Ctrl], the assay gave 240 nM (3 of 6 replicates; controls 1 of 18).
For GFTLNSYGIS | VIYSDGKRTFYGDSVK | GREAGIFDS [Ctrl], the assay gave 670 nM (3 of 6 replicates; controls 2 of 18).
For GESINSYGIS | VIYSDGRRTFYGDSVK | GRAAGTFDS [Ctrl], the assay gave 890 nM (4 of 6 replicates; controls 2 of 18).
For GFTLNSYGIS | VIYSDGRRTFYDDEVK | GRAKQTFDS [Ctrl], the assay gave nd (0 of 6 replicates; controls 1 of 18).
For GITLNDYGIS | VIYSDGRRTFYGDNVK | GRAAGIFDS [Ctrl], the assay gave nd (0 of 6 replicates; controls 0 of 18).
For GFTLNDYGIS | VIYSDGRRTYYGDSVK | GRAAGTFWS [GP_HC], the assay gave nd (0 of 6 replicates; controls 0 of 18).
For GFTLNSYGIS | VIYSDGRRTFYTDSVK | GKAAGTFHS [Ctrl], the assay gave nd (0 of 6 replicates; controls 0 of 18).
For GFTLNEYGIS | VIYSDGRRTFYGDSVK | GRAAETFDE [GP_HC], the assay gave nd (0 of 6 replicates; controls 0 of 18).
For DFTLNDYGIS | VIYSDGRRTFYGDSVK | GRLAGMFDS [Ctrl], the assay gave nd (0 of 6 replicates; controls 0 of 18).
For GFTLNSYGIS | VIYSDGRRTFYGDSVK | GRAAITFDS [Ctrl], the assay gave nd (0 of 6 replicates; controls 0 of 18).
For GFTLNSYGIS | VIYSDGRRTQYGDSVK | GRAAGAFDS [Ctrl], the assay gave nd (0 of 6 replicates; controls 0 of 18).
For GFTLNSYGIS | VIYSDGRRTFYGDSVK | GPTAGTFDS [Ctrl], the assay gave nd (0 of 6 replicates; controls 0 of 18).

Again, the first 4 entries without any signal:

GFTLNSYGIS | VIYSDGRRTFYDDEVK | GRAKQTFDS [Ctrl]: nd (0 of 6 replicates; controls 1 of 18).
GITLNDYGIS | VIYSDGRRTFYGDNVK | GRAAGIFDS [Ctrl]: nd (0 of 6 replicates; controls 0 of 18).
GFTLNDYGIS | VIYSDGRRTYYGDSVK | GRAAGTFWS [GP_HC]: nd (0 of 6 replicates; controls 0 of 18).
GFTLNSYGIS | VIYSDGRRTFYTDSVK | GKAAGTFHS [Ctrl]: nd (0 of 6 replicates; controls 0 of 18).